1 molecule from ChEMBL document CHEMBL1125563, “Selective, centrally acting serotonin 5-HT2 antagonists. 1. 2- and 6-substituted 1-phenyl-3-(4-piperidinyl)-1H-indoles” (J Med Chem, 1992) can be followed below.

Amino acid sequences for entries named in this document (tags omitted). A change or cut given only in a name is not applied to a line headed by its entry.
UniProt P30994: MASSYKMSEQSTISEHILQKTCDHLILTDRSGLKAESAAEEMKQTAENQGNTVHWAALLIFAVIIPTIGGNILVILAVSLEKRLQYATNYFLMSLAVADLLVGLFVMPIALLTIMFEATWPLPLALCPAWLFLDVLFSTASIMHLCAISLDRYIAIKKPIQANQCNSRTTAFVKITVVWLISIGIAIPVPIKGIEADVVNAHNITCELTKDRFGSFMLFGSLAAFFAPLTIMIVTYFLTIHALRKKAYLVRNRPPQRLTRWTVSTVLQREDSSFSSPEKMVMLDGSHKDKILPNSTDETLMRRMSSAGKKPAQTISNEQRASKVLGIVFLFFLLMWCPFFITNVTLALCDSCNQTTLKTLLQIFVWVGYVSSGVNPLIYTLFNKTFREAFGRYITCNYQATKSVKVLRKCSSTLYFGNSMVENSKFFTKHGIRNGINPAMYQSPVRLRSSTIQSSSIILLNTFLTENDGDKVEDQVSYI
UniProt P08909: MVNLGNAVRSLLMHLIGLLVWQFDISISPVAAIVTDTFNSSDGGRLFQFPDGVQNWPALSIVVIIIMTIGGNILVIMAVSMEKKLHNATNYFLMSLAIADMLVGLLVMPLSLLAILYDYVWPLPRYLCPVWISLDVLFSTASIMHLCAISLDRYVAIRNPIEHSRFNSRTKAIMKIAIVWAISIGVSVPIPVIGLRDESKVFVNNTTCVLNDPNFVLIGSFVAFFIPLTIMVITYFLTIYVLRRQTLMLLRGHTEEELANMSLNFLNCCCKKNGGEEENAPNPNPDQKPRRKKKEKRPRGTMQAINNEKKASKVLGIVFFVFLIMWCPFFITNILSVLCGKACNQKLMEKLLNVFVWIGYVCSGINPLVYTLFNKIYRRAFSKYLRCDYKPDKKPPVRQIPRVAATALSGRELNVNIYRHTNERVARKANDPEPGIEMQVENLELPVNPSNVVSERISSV
UniProt P14842: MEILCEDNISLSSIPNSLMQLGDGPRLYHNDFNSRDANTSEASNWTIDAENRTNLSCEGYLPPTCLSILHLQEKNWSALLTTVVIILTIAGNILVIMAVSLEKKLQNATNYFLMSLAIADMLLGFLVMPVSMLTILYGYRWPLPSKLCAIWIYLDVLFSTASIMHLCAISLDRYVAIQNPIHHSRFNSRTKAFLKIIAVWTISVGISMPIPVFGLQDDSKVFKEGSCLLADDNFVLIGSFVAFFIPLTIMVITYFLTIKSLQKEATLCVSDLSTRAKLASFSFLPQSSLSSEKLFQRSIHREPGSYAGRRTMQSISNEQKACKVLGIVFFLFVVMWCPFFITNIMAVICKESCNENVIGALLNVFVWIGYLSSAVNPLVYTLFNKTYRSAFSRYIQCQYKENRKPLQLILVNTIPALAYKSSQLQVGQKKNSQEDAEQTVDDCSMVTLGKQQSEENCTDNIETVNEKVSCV

This experiment addresses Serotonin 2 (5-HT2) receptor (Rattus norvegicus, UniProt P30994+P08909+P14842). Nature of the experiment: Displacement of [3H]ketanserin from 5-hydroxytryptamine 2 receptor from rat cortical membranes. Type of experiment: cell membranes, Membrane. Summed up: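 [3H]ketanserin displacement from rat cortical membranes (5-HT2). Five concentrations across three decades in triplicate, two full curves; IC50 estimated on a log-concentration scale, given as logarithmic mean of at least two determinations.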
(In general: In a radioligand displacement assay an active substance lowers the binding of a labelled ligand.)

Turning to `O=C1NCCN1CCN1CCC(c2cn(-c3ccc(F)cc3)c3ccc(Cl)cc23)CC1` [SERTINDOLE], the IC50 (usually the concentration at which inhibition is half-maximal) is 0.39 nM.
